## Yeast mating assay B: variants of the scFv Ab-14

Reference: Li et al. 2023, doi:10.1038/s41467-023-39022-2. File: FLAb, binding data.

The target is the same throughout: PDVDLGDISGINAS, from the HR2 region of SARS-CoV-2 spike.

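The starting antibody came from a phage panning campaign against this peptide. This is the validation round: designs drawn from the data on random variants, tested in the same kind of assay. Group labels follow the data file (Ctrl: baseline library sampled from a position-specific scoring matrix, with some repeated check sequences; Rand: our label for a block that the file lists under HC and that is probably the random mutants of the ten best first-round binders; En: ensemble of fine-tuned language models; GP: Gaussian process model; GPLM: also part of the Gaussian process libraries; HC: hill climbing; Gen: genetic algorithm; Gibbs: Gibbs sampling; a sequence that several methods proposed may carry one label only). The assay is AlphaSeq: two haploid yeast populations carry antibody and antigen on their surface. Mating (16 h, 30 °C) was followed by selection of diploids and sequencing of their barcodes. Each replicate has its own calibration line, from reference interactions of the BCL2 family. The assay was run in six technical replicates.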

Parent scFv Ab-14: VH joined to VL by the linker GGGGSGGGGSGGGGS. Changes lie in the heavy chain CDRs alone.
VH: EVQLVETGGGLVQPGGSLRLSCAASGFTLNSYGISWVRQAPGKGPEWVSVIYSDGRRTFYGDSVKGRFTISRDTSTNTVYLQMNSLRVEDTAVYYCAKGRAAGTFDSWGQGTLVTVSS
VL: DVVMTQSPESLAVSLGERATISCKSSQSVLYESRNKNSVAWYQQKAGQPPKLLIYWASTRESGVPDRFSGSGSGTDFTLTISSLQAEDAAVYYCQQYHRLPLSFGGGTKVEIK

The parent's heavy chain CDRs are GFTLNSYGIS, VIYSDGRRTFYGDSVK, GRAAGTFDS; each variant's own CDRs replace them letter for letter. Variants here have at most six changes. Each Kd is an estimate from the mating assay, the geometric mean of the replicates in which the pair was seen; lower is stronger. "nd" marks a missing value. The strain was present, yet no cells mated with the target were sequenced in any replicate, which points to weak or no binding. Entries are sorted by rising average, undetected variants last. In the paper, a design with two or fewer of six values counts as a poor binder. Nonspecific signal, from three strains lacking the peptide, appeared in 1% of pairings of all heavy chain designs, centred on 120 nM (5% of these signals below 7.0 nM); values are not corrected for it. The control count says in how many pairings with the empty strains this scFv gave a signal. The range of this assay differs from that of the first round, and the authors advise against merging the two. The parent sequence was in this pool as ten entries: three were never detected, three once, and four in most replicates, with averages from 2.2 nM to 240 nM.

* GFTLNSYGIS, VIYSDGLRVSYADSVK, GHAAGTFDS [Ctrl] -> 190 pM (1 of 6 replicates; controls 0 of 18)
* GFGLNSYGIS, VIYSDGRRTFYSDSVK, GQEAGTFDS [GP_HC] -> 510 pM (6 of 6 replicates; controls 1 of 18)
* GFELNSYGIS, VIYADGRRTFYGDSVK, GQAAGTFDS [GPLM_Gen] -> 570 pM (6 of 6 replicates; controls 2 of 18)
* GFDLNSYGIS, VIYSDGKRTFYGDSVK, GRTAGTFDD [GP_Gen] -> 690 pM (6 of 6 replicates; controls 0 of 18)
* GFDLNSYGIS, VIYSDGKRTFYADSVK, GKAAGTFDS [GPLM_Gibbs] -> 730 pM (6 of 6 replicates; controls 1 of 18)
* GFNLNEYGIS, VIYADGRRTFYADSVK, GQAAGTFDV [En_HC] -> 800 pM (6 of 6 replicates; controls 0 of 18)
* GFSLNSYGIS, VIYSDGRRAFYGDSVK, GQAAGTFDS [GPLM_Gen] -> 1.7 nM (6 of 6 replicates; controls 0 of 18)
* GFTLNSYGIS, VIYSDGRRTFYGDSVK, GRAAGTFLS [Ctrl] -> 1.8 nM (6 of 6 replicates; controls 0 of 18)
* GFSLNDYGIS, VIYSDGRRTFYCDEVK, GRTAGTFDS [GPLM_Gibbs] -> 3.3 nM (6 of 6 replicates; controls 0 of 18)
* GFTLNEYGIS, VIYSDGRRTFYKDSVK, GRQAGTFDS [GPLM_HC] -> 3.6 nM (6 of 6 replicates; controls 1 of 18)
* GFELNSYGIS, VIYSDGRRTFYIDSVK, GQAAGTFDK [GPLM_Gibbs] -> 5.9 nM (4 of 6 replicates; controls 0 of 18)
* GFSLNSYGIS, VIYSDGRRTFYTDSVK, GRAAGTFDS [GPLM_Gen] -> 6.3 nM (3 of 6 replicates; controls 0 of 18)
* GFGLNEYGIS, VIYSDGRRTFYGDSVK, GRQAGTFDT [GP_Gen] -> 17 nM (5 of 6 replicates; controls 1 of 18)
* YFDLNSYGIS, VIYSDGRRTFYADSVK, GNAAGTFDS [GP_Gen] -> 25 nM (6 of 6 replicates; controls 0 of 18)
* GFVLNSYGIS, VIYSDGRRTFYGDSVK, GQAAGTFDS [GPLM_Gen] -> 33 nM (1 of 6 replicates; controls 0 of 18)
* GFSLNKYGIS, VIYSDGRRTFYGDSVK, GQAAGTFDS [GPLM_Gen] -> 37 nM (6 of 6 replicates; controls 1 of 18)
* GFTLNSYGIS, VIYSDGRRTFYGDKVK, GRAAGTFDS [Ctrl] -> 66 nM (1 of 6 replicates; controls 0 of 18)
* GFTLNEYGIS, VIYSDGRRTFYMDSVK, GRYAGTFDS [GPLM_HC] -> 78 nM (2 of 6 replicates; controls 0 of 18)
* GFNLNMYGIS, VIYSDGQRTFYGDSVK, GRAAGTFEV [Ctrl] -> 100 nM (1 of 6 replicates; controls 0 of 18)
* GFELNSYGIS, VIYSDGRRTFYLDSVK, GNAAGTFDS [GP_Gen] -> 230 nM (4 of 6 replicates; controls 0 of 18)
* GFTLNSYGIS, VIYADGRRTFYGDSVK, GRNAGTSDT [Ctrl] -> 16 µM (1 of 6 replicates; controls 0 of 18)
* GFTLNSYGIS, VIYSDGRRTFYGDSVK, GRNAGTFPS [Ctrl] -> nd (0 of 6 replicates; controls 0 of 18)
* GFTLNSYGIS, VIYADGRRTFYWDSVK, GRAAGTNKS [Rand] -> nd (0 of 6 replicates; controls 0 of 18)
* NFTLNEYGIS, VIYSIGRRTFYTDSVK, GRFAGTFDS [Rand] -> nd (0 of 6 replicates; controls 1 of 18)
* GFTLNSYGIS, VIYSDGRRTFYGDSVK, GLASGTFDS [Ctrl] -> nd (0 of 6 replicates; controls 0 of 18)
* YFDLNSYGIS, VIYSDGRRTFYIDSVK, GNAAGTFDS [GP_Gen] -> nd (0 of 6 replicates; controls 0 of 18)
* GFTLLSYGIS, VIYSDGRRTFYGDSVK, GGAAGDFDS [Ctrl] -> nd (0 of 6 replicates; controls 1 of 18)
* GFTLNEYGIS, VIYSDGRRTFYGDSVK, GRAAATFDQ [GPLM_HC] -> nd (0 of 6 replicates; controls 0 of 18)
* GFTLNSYGIS, VIYSDGRRTFYGDSVK, GRAAGEFDS [Ctrl] -> nd (0 of 6 replicates; controls 0 of 18)
* GFTLNEYGIS, VIYSDGRRTFYGDSVK, GRAAVTFVL [GP_HC] -> nd (0 of 6 replicates; controls 0 of 18)
* GFVLNSYGIS, VIYSDGRRTFYGDSVK, GRATGGFDS [Ctrl] -> nd (0 of 6 replicates; controls 1 of 18)
* GFTLNDYGIS, VIYSDGRRTFYSDSVK, GRAAGHFDS [GPLM_HC] -> nd (0 of 6 replicates; controls 0 of 18)
* GFTLNSYGIS, VIYRDGRRTFYGDSVK, GSAAGWFDS [Ctrl] -> nd (0 of 6 replicates; controls 0 of 18)
* GFTLNSYGIS, VIYSDGRRTSYGDDVK, NRAPATFDS [Ctrl] -> nd (0 of 6 replicates; controls 1 of 18)
* GFTLNSYKIS, VIYSDGRRTTYSDSVK, GRAGGTFDS [Rand] -> nd (0 of 6 replicates; controls 0 of 18)
* GFTLNEYGIS, VIYSDGARTFYADSVK, GQAALTFDS [Ctrl] -> nd (0 of 6 replicates; controls 0 of 18)
* GFTLNQYGIS, VIYSDGRRTFYKDSVK, GRAAKTFDS [Ctrl] -> nd (0 of 6 replicates; controls 0 of 18)
* GFTLNSYGVS, VIYSDGRRTAYGDSVK, GRAAKQFDV [Ctrl] -> nd (0 of 6 replicates; controls 1 of 18)
* GFNLNSYGIS, VIYSDGRRTAYGDYVK, SRNAGTFES [Ctrl] -> nd (0 of 6 replicates; controls 1 of 18)

The first 4 entries again:

* GFTLNSYGIS, VIYSDGLRVSYADSVK, GHAAGTFDS [Ctrl] -> 190 pM (1 of 6 replicates; controls 0 of 18)
* GFGLNSYGIS, VIYSDGRRTFYSDSVK, GQEAGTFDS [GP_HC] -> 510 pM (6 of 6 replicates; controls 1 of 18)
* GFELNSYGIS, VIYADGRRTFYGDSVK, GQAAGTFDS [GPLM_Gen] -> 570 pM (6 of 6 replicates; controls 2 of 18)
* GFDLNSYGIS, VIYSDGKRTFYGDSVK, GRTAGTFDD [GP_Gen] -> 690 pM (6 of 6 replicates; controls 0 of 18)